Activation data for 2 molecules are collected here from PubChem BioAssay AID1346985 (Tox21, 2019).

The entries are a selection whose mix differs from that of the whole data set. Records with an inconclusive call do not appear. The source made the active and inactive calls. The call rests on the fitted dose curve; in most records, active means well fitted activation curve with a large enough effect in the repeat runs; inconclusive means weak or mixed curves; inactive means flat fitted curve, though single readings scatter.
On the % scale 0 is the no-effect control and ±100 the full control effect.

The test has as its target Nuclear receptor subfamily 1 group I member 2 (Homo sapiens) (UniProt O75469). Description: Human pregnane X receptor (PXR) activation by small molecules, qHTS assay. Further: nearly all actives have a fitted effect of over 40% in size. Conditions: DPX-2 HepG2 CYP3A4-luciferase, 24 h; at 38.3 µM (top of the series). The source says:
National Center for Advancing Translational Sciences [NCATS]
NIH Chemical Genomics Center [NCGC]
U.S. Environmental Protection Agency [EPA]
National Institutes of Environmental Health Sciences [NIEHS]
National Toxicology Program [NTP]
The Pregnane X receptor (PXR), a ligand activated nuclear receptor plays a critical role in the regulation of genes involved in drug metabolism and transporters. Activation of PXR may be involved in the unwanted adverse drug-drug interactions. […] Therefore, identification of compounds with the potential for PXR activation can be of importance in improving the efficacy of drugs with less toxicity and avoiding drug-drug interactions.
DPX-2 (Puracyp, Inc.) cell lines, used for screening against human PXR activation has HepG2 cells co-transfected with a PXR response element and a luciferase construct containing CYP3A4 promoter. Increase in luciferase activity can be used to identify the compounds that activate the PXR pathway.
DPX-2 cells were dispensed at 2,000 cells per well in 5uL of assay medium into white, solid-bottom 1536-well plates using a Multidrop Combi dispenser (Thermo Scientific). […] Then 5ul One-Glo assay reagent (Promega) was added to each plate by a Flying Reagent Dispenser (FRD, Aurora Discovery) and following 30 min incubation at room temperature, luciferase activity was quantified on a ViewLux plate reader (Perkin Elmer).
On the technique in general: Quantitative high-throughput screening tests each substance at several concentrations.
In the case of `CN(C(=O)Cc1ccccc1)[C@H]1CC[C@@]2(CCCO2)C[C@@H]1N1CCCC1`, the activation was inactive: 0.0469%.

Regarding `O=C(OC1CN2CCC1CC2)c1ccccc1` (configuration not stated), the activation is inactive: 8.29%.
